Assay results published in article PMC2134812 (The Journal of Cell Biology, 1997).

Test system: B5 and SH-SY5Y cells
Test: Competition of 125I-LIP2 binding
Design: species or system human
Details: 2 μM competitor, preincubated 1 h at 4°C, 10 nM 125I-LIP2

leucine enkephalin
Inhibition of 125I-LIP2 binding (in words): No significant inhibitory effect
